Assay results published in ChEMBL document CHEMBL5385870, “Amide containing NBTI antibacterials with reduced hERG inhibition, retained antimicrobial activity against gram-positive bacteria and in vivo efficacy” (Eur J Med Chem, 2023).
In brackets after ≈: the same amount, converted by molar mass.

Assays:
Type in all cases: functional
Staphylococcus aureus [1] = assay: Antibacterial activity against methicilin-resistant Staphylococcus aureus assessed as bacterial growth inhibition
Escherichia coli = assay: Antimicrobial activity against Escherichia coli N43 assessed as reduction in bacterial growth incubated for 20 hrs by broth microdilution analysis
Staphylococcus aureus [2] = assay: Antimicrobial activity against cefoxitin/ciprofloxacin/clindamycin/erythromycin/tetracycline/thiamulin/trimethoprim-resistant Staphylococcus aureus assessed as reduction in bacterial growth incubated for 20 hrs by broth microdilution analysis
Method in brief: (§1)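 MIC was determined by broth microdilution per CLSI/EUCAST. Inoculum was 10^5 CFU/mL in cation-adjusted Mueller-Hinton broth with TES, with compounds in DMSO, incubated 20 h at 35 °C. MIC was read visually as the lowest concentration without turbidity. Tetracycline was the plate control.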

Staphylococcus aureus [3] = assay: Antimicrobial activity against cefoxitin/gentamicin/kanamycin/rifampicin/streptomycin/sulfamethoxazole/tetracycline-resistant Staphylococcus aureus assessed as reduction in bacterial growth incubated for 20 hrs by broth microdilution analysis; method in brief: as §1

Structure (SMILES): COc1ccc2nccc(CCN3CCC(NCc4cc(F)c(Br)c(F)c4)CC3)c2n1
- MIC (Staphylococcus aureus [1]): 0.016 µg/mL (≈ 0.0326 µM)
- MIC (Escherichia coli): 0.016 µM (≈ 0.00786 µg/mL)
- MIC (Staphylococcus aureus [2]): 0.033 µM (≈ 0.0162 µg/mL)
- MIC (Staphylococcus aureus [3]): 0.033 µM (≈ 0.0162 µg/mL)
